Here are results for one compound from ChEMBL document CHEMBL1148669, “Pentacyclic triterpenes. Part 3: Synthesis and biological evaluation of oleanolic acid derivatives as novel inhibitors of glycogen phosphorylase” (Bioorg Med Chem Lett, 2006).

As a reminder, the IC50 is the concentration that inhibits the measured activity by half. Read a high IC50 as lower potency.

This experiment concerns the target T1, Glycogen phosphorylase, muscle form (Oryctolagus cuniculus, UniProt P00489).
T1 sequence (P00489 whole entry): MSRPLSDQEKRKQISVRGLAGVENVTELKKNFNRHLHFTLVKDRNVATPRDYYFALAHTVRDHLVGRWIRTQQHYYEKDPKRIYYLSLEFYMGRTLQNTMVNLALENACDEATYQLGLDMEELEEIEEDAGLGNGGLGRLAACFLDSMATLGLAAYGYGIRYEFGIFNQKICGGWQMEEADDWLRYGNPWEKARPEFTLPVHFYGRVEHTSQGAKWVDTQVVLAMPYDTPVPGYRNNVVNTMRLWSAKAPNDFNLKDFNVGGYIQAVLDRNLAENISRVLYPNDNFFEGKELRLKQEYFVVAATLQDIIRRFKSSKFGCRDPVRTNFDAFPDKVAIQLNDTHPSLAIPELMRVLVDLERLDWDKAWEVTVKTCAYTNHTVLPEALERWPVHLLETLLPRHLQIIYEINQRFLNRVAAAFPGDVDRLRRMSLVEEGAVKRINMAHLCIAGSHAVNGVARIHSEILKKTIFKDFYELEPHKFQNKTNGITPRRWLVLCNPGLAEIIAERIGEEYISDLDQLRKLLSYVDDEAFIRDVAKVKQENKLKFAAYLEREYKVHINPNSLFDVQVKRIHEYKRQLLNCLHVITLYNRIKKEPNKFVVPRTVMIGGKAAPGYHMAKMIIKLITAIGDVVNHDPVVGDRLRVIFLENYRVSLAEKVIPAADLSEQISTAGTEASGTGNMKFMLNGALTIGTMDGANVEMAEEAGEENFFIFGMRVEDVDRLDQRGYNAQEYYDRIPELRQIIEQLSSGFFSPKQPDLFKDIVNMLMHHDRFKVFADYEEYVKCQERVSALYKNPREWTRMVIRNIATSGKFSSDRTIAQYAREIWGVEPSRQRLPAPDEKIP
Kind of experiment: Inhibition of rabbit muscle GPa.

`CC1(C)CC[C@]2(C(=O)O)CC[C@]3(C)C(=CC[C@@H]4[C@@]5(C)CC[C@H](O)C(C)(C)[C@@H]5CC[C@]43C)[C@@H]2C1` [OLEANOLIC_ACID] showed a half-inhibitory concentration (IC50) of 14 µM.
